The results in this text go back to patent US20130209543A1, “ENHANCED TREATMENT REGIMENS USING MTOR INHIBITORS” (Intellikine LLC, priority 2011, published 2013).

Like-named read-outs stand apart in the source and are kept apart here.

Format in all cases: biochemical
One assay concerns the target T1, mTOR (Homo sapiens, UniProt P42345).
T1 construct: purchased Invitrogen
Put plainly: mTOR kinase inhibition assay. Particulars: Table 1.

The target in a further assay is PI3K γ (Homo sapiens, UniProt P48736). As to the kind of experiment: PI3K γ kinase assay.
Another assay concerns the target PI3K δ (Homo sapiens, UniProt O00329). As to the kind of experiment: PI3K δ kinase assay. As to conditions: Table 1.
The target in another assay is PI3K β (Homo sapiens, UniProt P42338). Put plainly: PI3K β kinase assay. As to conditions: Table 1.
For another assay, the target named is PI3K α (Homo sapiens, UniProt P42336). Put plainly: PI3K α kinase assay.

For the compound `CC(=O)Nc1nc2ccc(-c3nn(C(C)C)c4ncnc(N)c34)cc2o1` [Compound 3], the IC50 against mTOR, on PI3K γ (Table 1) and against PI3K δ was less than 10 µM in each case.

With `CC(C)n1nc(-c2ccc3c(NC4CC4)noc3c2)c2c(N)ncnc21` [Compound 14], the IC50 on PI3K γ (Table 1) is less than 1 µM.

At PI3K γ (Table 2), `Nc1ncnc2c1c(-c1cc3cc(O)ccc3[nH]1)nn2C1CCCC1` [Compound 12] yielded an IC50 of 0.1 to 0.5 µM.

For `Nc1nc2cc(-c3nn(C4CC(O)C4)c4ncnc(N)c34)ccc2o1` (centres unmarked) [Compound 26], the IC50 on PI3K β and against PI3K δ was less than 1 µM each time.

At PI3K γ (Table 1), `CC(C)n1nc(-c2ccc3onc(NC4CC4)c3c2)c2c(N)ncnc21` [Compound 16] came in with an IC50 of less than 10 µM.

With `COc1cccc2cc(-c3nn(C(C)C)c4ncnc(N)c34)[nH]c12` [Compound 10], the IC50 at PI3K α and against PI3K γ (Table 2) was more than 0.5 µM throughout.

Consider `Nc1nc2cc(-c3nn(C4CCC(N5CCOCC5)CC4)c4ncnc(N)c34)ccc2o1` (centres unmarked) [Compound 6], for which the IC50 was less than 10 µM on PI3K α (Table 1, read-out: PI3K α IC50) and less than 10 µM at PI3K γ (Table 1).

For the compound `Nc1noc2ccc(-c3nn(CCN4CCOCC4)c4ncnc(N)c34)cc12` [Compound 18], the IC50 against PI3K γ (Table 1) was more than 10 µM.

At PI3K γ (Table 1), `CNc1noc2ccc(-c3nn(C(C)C)c4ncnc(N)c34)cc12` [Compound 15] came in with an IC50 of more than 10 µM.

On to `Nc1nc2cc(-c3cn(C4CCOCC4)c4ncnc(N)c34)ccc2o1` [Compound 9], for which the half-maximal inhibitory concentration (IC50) against PI3K γ (Table 1) and against PI3K δ was less than 1 µM each time.

`CCOC(=O)C(C)n1nc(-c2ccc3oc(N)nc3c2)c2c(N)ncnc21` (centres unmarked) [Compound 24]: the IC50 at PI3K γ (Table 1) is more than 10 µM.
